# Literature values in paper PMC9668914, “Understanding VPAC receptor family peptide binding and selectivity” (Nature Communications, 2022).
# The chains behind the UniProt entries cited, without tags or fusion partners. Residues count along the entry.
# UniProt P32241, 31-457: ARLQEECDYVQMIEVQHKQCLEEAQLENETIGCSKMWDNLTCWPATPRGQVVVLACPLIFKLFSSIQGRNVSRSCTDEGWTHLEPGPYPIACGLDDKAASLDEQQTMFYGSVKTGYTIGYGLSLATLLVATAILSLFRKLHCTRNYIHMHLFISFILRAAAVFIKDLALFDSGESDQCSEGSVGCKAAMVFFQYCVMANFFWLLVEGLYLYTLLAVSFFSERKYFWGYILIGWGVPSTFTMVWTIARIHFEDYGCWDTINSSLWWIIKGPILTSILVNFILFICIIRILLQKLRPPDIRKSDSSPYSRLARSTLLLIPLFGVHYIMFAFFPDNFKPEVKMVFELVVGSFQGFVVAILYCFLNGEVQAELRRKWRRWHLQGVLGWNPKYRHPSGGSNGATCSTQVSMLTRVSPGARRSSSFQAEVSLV
# Legend:
# PAC1R = target: T1, PAC1R (Homo sapiens, UniProt P41586); set-up: method as in PMID 19109992; conditions: cited from earlier work
# T1 construct: An HA signal peptide was inserted in place of the native signal peptide of the receptors; HA signal peptide (replaces the native signal peptide) (N); 3C protease cleavage sites (between FLAG and receptor, and between receptor and His) (internal); expressed in transfected cells; host or cells: COS-7 (transient, PEI)
# T1 sequence (P41586 21-468): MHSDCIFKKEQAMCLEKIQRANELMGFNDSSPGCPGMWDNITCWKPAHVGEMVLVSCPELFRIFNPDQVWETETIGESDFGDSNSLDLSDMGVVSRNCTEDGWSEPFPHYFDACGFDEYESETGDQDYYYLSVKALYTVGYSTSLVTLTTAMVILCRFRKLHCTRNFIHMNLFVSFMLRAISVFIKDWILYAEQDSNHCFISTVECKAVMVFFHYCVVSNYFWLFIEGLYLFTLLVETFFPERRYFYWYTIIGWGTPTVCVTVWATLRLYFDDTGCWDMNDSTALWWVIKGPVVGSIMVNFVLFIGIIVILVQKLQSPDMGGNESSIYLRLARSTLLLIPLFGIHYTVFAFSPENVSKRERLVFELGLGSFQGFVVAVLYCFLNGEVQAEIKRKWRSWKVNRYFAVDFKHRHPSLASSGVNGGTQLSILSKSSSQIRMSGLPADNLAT
# VPAC1R = VPAC1R (Homo sapiens, UniProt P32241); conditions: cited from earlier work
substance,measurement,setting,value
pituitary adenylate cyclase-activating polypeptide [PACAP],"affinity for PAC1R relative to VIP, higher",PAC1R,approximately 1000 fold
same,VPAC1R affinity,VPAC1R,high affinity
